Data from patent US20230087342A1, “AZEPANE DERIVATIVE” (Nippon Chemiphar Co., Ltd., priority 2019, published 2023).

Sequences of proteins named here, by UniProt entry; tags and fusion partners are left off.
UniProt P41145, whole entry: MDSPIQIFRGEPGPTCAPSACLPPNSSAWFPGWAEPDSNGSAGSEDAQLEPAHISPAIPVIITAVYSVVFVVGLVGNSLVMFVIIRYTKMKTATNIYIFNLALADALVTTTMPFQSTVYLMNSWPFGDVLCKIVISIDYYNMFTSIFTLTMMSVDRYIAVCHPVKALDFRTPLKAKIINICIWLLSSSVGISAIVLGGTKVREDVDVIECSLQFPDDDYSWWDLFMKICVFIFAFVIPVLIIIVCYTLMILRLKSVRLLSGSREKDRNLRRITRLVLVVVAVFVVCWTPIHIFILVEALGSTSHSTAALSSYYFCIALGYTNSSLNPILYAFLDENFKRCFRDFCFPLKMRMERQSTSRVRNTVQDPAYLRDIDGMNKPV

Molecular target: human κ opioid receptors (Homo sapiens, UniProt P41145)
Assay: Opioid receptor function test (Lance Ultra cAMP kit, agonist activity)
Conditions: read-out: EC50 value, CHO cells expressing human κ opioid receptors, 10 μM forskolin, 30 minutes
Experimental: Opioid Receptor Function Test
The function activity of the compound of the present invention on κ opioid receptors was examined.
Method: Using a Lance Ultra cAMP kit (Perkin Elmer), the examination was performed according to a predetermined method. In evaluation of agonist activity, CHO cells expressing human κ opioid receptors (Catalog No. CT6606, accession No. NM_000912) and a test compound were reacted in an assay buffer (1×HSS, 5 mM HEPES, pH 7.4, 0.5 mM IBMX (isobutylmethyixanthine), 0.1% SA) in the presence of 10 μM forskolin for 30 minutes. Subsequently, a cAMP detection reagent in the kit was added. One hour later, time-resolved fluorescence measurement was performed using an EnVision plate reader (Perkin Elmer). The evaluation of the test compound was performed in a concentration range of 10^−14 to 10^−7 M for the κ opioid receptor function test.

Compound | EC50
C=CCN1CC[C@]23CCN(CCn4cc(C)cn4)CC[C@@]2(O)[C@H]1Cc1ccc(O)cc13 | 0.22 nM
Cc1cnn(C[C@H](C)N2CC[C@]34CCN(CC5CC5)[C@H](Cc5ccc(O)cc53)[C@]4(O)CC2)c1 | 0.01 nM
